The data set in a line: physchem. The following applies: thermodynamic from solid.

Values after ≈ are worked out from the molar mass of the structure shown.

Consider `CC(=O)Nc1ccc(O)cc1` [Acetaminophen], for which the solubility was 13.8 mg/mL (≈ 91.3 mM) (pH 4, aqueous buffer); 13.8 mg/mL (≈ 91.3 mM) (pH 6, aqueous buffer); 32.9 mg/mL (water with gabapentin, pH 4, aqueous buffer, Acetaminophen solubility, APAP + GBP together in water, pH 4.0); roughly 30 mg/mL (water with gabapentin, pH 4, aqueous buffer, solubility of APAP in presence of GBP, in presence of GBP, pH 4.0-8.0); 31.7 mg/mL (water with gabapentin, pH 4.5, aqueous buffer, Acetaminophen solubility, APAP + GBP together in water, pH 4.5); 30.7 mg/mL (water with gabapentin, pH 5, aqueous buffer, Acetaminophen solubility, APAP + GBP together in water, pH 5.0). Besides, the solubility (water with gabapentin, pH 5.5, aqueous buffer, Acetaminophen solubility, APAP + GBP together in water, pH 5.5) turned out to be 30.2 mg/mL; the solubility (water with gabapentin, pH 6, aqueous buffer, Acetaminophen solubility, APAP + GBP together in water, pH 6.0) stood at 28.8 mg/mL; the solubility (water with gabapentin, pH 6.5, aqueous buffer, Acetaminophen solubility, APAP + GBP together in water, pH 6.5) stood at 28.4 mg/mL; the solubility (water with gabapentin, pH 7, aqueous buffer, Acetaminophen solubility, APAP + GBP together in water, pH 7.0) came out at 30.5 mg/mL; the solubility (water with gabapentin, pH 7.5, aqueous buffer, Acetaminophen solubility, APAP + GBP together in water, pH 7.5) turned out to be 27.8 mg/mL; the solubility (water with gabapentin, pH 8, aqueous buffer, Acetaminophen solubility, APAP + GBP together in water, pH 8.0) came out at 31.3 mg/mL.

The record behind these values is US10052296B2, “Formulations for treating pain” (priority 2016, dated 2018).
